## Lactobacillus rhamnosus GG
1 hour, pH 3.0, 37° C.
  After one hour at pH 3.0 (viable cell count): 8.54 ± 0.281 logCFU/mL
After pH 3.0 step, bile juice and duodenum juice, 37° C.
  After two or more hours in 3.25% oxgall (viable cell count): 6.82 ± 0.064 logCFU/mL
Cells re-suspended in MRS broth pH 3, before incubation
  Initial cell count: 9.12 ± 0.311 logCFU/mL
Viable cells after 3 hours vs initial cells
  Overall survival rate: 0.54 ± 0.293%
